This test addresses Recombinant human cathepsin S (CatS) (Homo sapiens, UniProt P25774). In words: biochemical.

Protein sequences, listed by entry. Tags and fused reporters are not part of them. Residues count along the entry.
UniProt P25774, 115-331: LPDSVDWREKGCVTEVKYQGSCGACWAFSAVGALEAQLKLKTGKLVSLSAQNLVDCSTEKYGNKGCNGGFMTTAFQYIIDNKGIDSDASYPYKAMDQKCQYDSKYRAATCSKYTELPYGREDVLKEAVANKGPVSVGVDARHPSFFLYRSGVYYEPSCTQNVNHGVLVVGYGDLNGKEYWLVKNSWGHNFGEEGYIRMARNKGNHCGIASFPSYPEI

SMILES strings stand for the structures.

By IC50 is commonly meant the concentration that gives 50% inhibition.

In the case of `CC1CCN(CCSc2cc(-c3nn(C[C@@H](O)CN4CCC(C)(O)CC4)c4c3CN(S(C)(=O)=O)CC4)ccc2C(F)(F)F)CC1` [Example 549, 1-[(2S)-2-Hydroxy-3-{3-[3-{[2-(4-methylpiperidin-1-yl)ethyl]sulfanyl}-4-(trifluoromethyl)phenyl]-5-(methylsulfonyl)-4,5,6,7-tetrahydro-1H-pyrazolo[4,3-c]pyridin-1-yl}propyl]-4-methylpiperidin-4-ol], the IC50 amounted to 570 nM.

Take `CS(=O)(=O)N1CCc2c(c(-c3ccc(C(F)(F)F)c(SCCN4CCC(O)CC4)c3)nn2CC(O)CN2CCC(C(=O)N3CCCC3)CC2)C1` (stereo not drawn) [Example 808, 1-[2-({5-[1-{2-Hydroxy-3-[4-(pyrrolidin-1-ylcarbonyl)piperidin-1-yl]propyl}-5-(methylsulfonyl)-4,5,6,7-tetrahydro-1H-pyrazolo[4,3-c]pyridin-3-yl]-2-(trifluoromethyl)phenyl}sulfanyl)ethyl]piperidin-4-ol]: the half-maximal inhibitory concentration (IC50) turned out to be 110 nM. Next, `CC1(C)CCN(CC(O)Cn2nc(-c3ccc(C(F)(F)F)c(SCCNS(C)(=O)=O)c3)c3c2CCN(S(C)(=O)=O)C3)CC1` (stereo not drawn) [Example 516, N-(2-{[5-{1-[3-(4,4-Dimethylpiperidin-1-yl)-2-hydroxypropyl]-5-(methylsulfonyl)-4,5,6,7-tetrahydro-1H-pyrazolo[4,3-c]pyridin-3-yl}-2-(trifluoromethyl)phenyl]sulfanyl}ethyl)methanesulfonamide]: 360 nM; `Cc1ccccc1N1CCN(CC(O)Cn2nc(-c3ccc(C(F)(F)F)c(SCCN4CCCCC4)c3)c3c2CCN(S(C)(=O)=O)C3)CC1` (stereo not drawn) [Example 702, 1-[4-(2-Methylphenyl)piperazin-1-yl]-3-[5-(methylsulfonyl)-3-{3-[(2-piperidin-1-ylethyl)sulfanyl]-4-(trifluoromethyl)phenyl}-4,5,6,7-tetrahydro-1H-pyrazolo[4,3-c]pyridin-1-yl]propan-2-ol]: 20 nM. In the case of `CN(C)c1ccc2c(n1)n(C1CCN(CC(O)Cn3nc(-c4ccc(C(F)(F)F)c(SCCN5CCCCC5)c4)c4c3CCNC4)CC1)c(=O)n2C` (stereo not drawn) [Example 229, 5-(Dimethylamino)-3-{1-[2-hydroxy-3-(3-{3-[(2-piperidin-1-ylethyl)sulfanyl]-4-(trifluoromethyl)phenyl}-4,5,6,7-tetrahydro-1H-pyrazolo[4,3-c]pyridin-1-yl)propyl]piperidin-4-yl}-1-methyl-1,3-dihydro-2H-imidazo[4,5-b]pyridin-2-one] it was 130 nM. In the case of `CS(=O)(=O)N1CCc2c(c(-c3ccc(C(F)(F)F)c(SCCN4CC[C@H](F)C4)c3)nn2C[C@@H](O)CN2CCC(c3ccccn3)CC2)C1` [Example 286] it was 40 nM; in that of `CS(=O)(=O)N1CCc2c(c(-c3ccc(C(F)(F)F)c(SCCN4CCCC(F)C4)c3)nn2C[C@@H](O)CN2CC3CCCC3C2)C1` (stereo partly drawn) [Example 550, (2S)-1-{3-[3-{[2-(3-Fluoropiperidin-1-yl)ethyl]sulfanyl}-4-(trifluoromethyl)phenyl]-5-(methylsulfonyl)-4,5,6,7-tetrahydro-1H-pyrazolo[4,3-c]pyridin-1-yl}-3-(hexahydrocyclopenta[c]pyrrol-2(1H)-yl)propan-2-ol], 220 nM; in that of `CS(=O)(=O)N1CCc2c(c(-c3ccc(C(F)(F)F)c(SCCN4CCC(F)CC4)c3)nn2CC(O)CN2CCN(c3ccccc3)CC2)C1` (stereo not drawn) [Example 729, 1-{3-[3-{[2-(4-Fluoropiperidin-1-yl)ethyl]sulfanyl}-4-(trifluoromethyl)phenyl]-5-(methylsulfonyl)-4,5,6,7-tetrahydro-1H-pyrazolo[4,3-c]pyridin-1-yl}-3-(4-phenylpiperazin-1-yl)propan-2-ol], 20 nM. Turning to `CS(=O)(=O)N1CCc2c(c(-c3ccc(C(F)(F)F)c(SCCN4CCC(F)CC4)c3)nn2CC(O)CN2CCC(C(N)=O)CC2)C1` (stereo not drawn) [Example 194, 1-(3-{3-[3-{[2-(4-Fluoropiperidin-1-yl)ethyl]sulfanyl}-4-(trifluoromethyl)phenyl]-5-(methylsulfonyl)-4,5,6,7-tetrahydro-1H-pyrazolo[4,3-c]pyridin-1-yl}-2-hydroxypropyl)piperidine-4-carboxamide], the IC50 turned out to be 60 nM.

As to `CCS(=O)(=O)NCCSc1cc(-c2nn(CC(O)CN3CCC(N4CCCC4=O)CC3)c3c2CN(S(C)(=O)=O)CC3)ccc1C(F)(F)F` (stereo not drawn) [Example 772, N-[2-({5-[1-{2-Hydroxy-3-[4-(2-oxopyrrolidin-1-yl)piperidin-1-yl]propyl}-5-(methylsulfonyl)-4,5,6,7-tetrahydro-1H-pyrazolo[4,3-c]pyridin-3-yl]-2-(trifluoromethyl)phenyl}sulfanyl)ethyl]ethanesulfonamide], the half-inhibitory concentration (IC50) amounted to 27 nM. `CS(=O)(=O)N1CCc2c(c(-c3ccc(C(F)(F)F)c(SCC(=O)N4CC[C@H](O)C4)c3)nn2CC(O)CN2CCC(NC(=O)CO)CC2)C1` (stereo partly drawn) [Example 695, 2-Hydroxy-N-[1-(2-hydroxy-3-{3-[3-({2-[(3S)-3-hydroxypyrrolidin-1-yl]-2-oxoethyl}sulfanyl)-4-(trifluoromethyl)phenyl]-5-(methylsulfonyl)-4,5,6,7-tetrahydro-1H-pyrazolo[4,3-c]pyridin-1-yl}propyl)piperidin-4-yl]acetamide]: the concentration for half-maximal inhibition (IC50) came to 85 nM.

Regarding `CS(=O)(=O)N1CCc2c(c(-c3ccc(C(F)(F)F)c(SCCN4CCCC(F)(F)C4)c3)nn2C[C@@H](O)CN2C=NCCC2)C1` [Example 492, (2S)-1-{3-[3-{[2-(3,3-Difluoropiperidin-1-yl)ethyl]sulfanyl}-4-(trifluoromethyl)phenyl]-5-(methylsulfonyl)-4,5,6,7-tetrahydro-1H-pyrazolo[4,3-c]pyridin-1-yl}-3-(5,6-dihydropyrimidin-1(4H)-yl)propan-2-ol], the IC50 was determined as 430 nM. In the case of `CC1CCN(CC(O)Cn2nc(-c3ccc(C(F)(F)F)c(SCCN4CCOCC4)c3)c3c2CCN(S(C)(=O)=O)C3)CC1` (stereo not drawn) [Example 175, 1-(4-Methylpiperidin-1-yl)-3-[5-(methylsulfonyl)-3-{3-[(2-morpholin-4-ylethyl)sulfanyl]-4-(trifluoromethyl)phenyl}-4,5,6,7-tetrahydro-1H-pyrazolo[4,3-c]pyridin-1-yl]propan-2-ol] it was 200 nM; in that of `CS(=O)(=O)N1CCc2c(c(-c3ccc(C(F)(F)F)c(SCC(=O)N4CCCC4)c3)nn2CC(O)CN2CCC(c3ccccn3)CC2)C1` (stereo not drawn) [Example 256, 1-[5-(Methylsulfonyl)-3-{3-[(2-oxo-2-pyrrolidin-1-ylethyl)sulfanyl]-4-(trifluoromethyl)phenyl}-4,5,6,7-tetrahydro-1H-pyrazolo[4,3-c]pyridin-1-yl]-3-(4-pyridin-2-ylpiperidin-1-yl)propan-2-ol], 2 nM. In the case of `O=C(CO)N1CCc2c(c(-c3ccc(C(F)(F)F)c(SCCN4CCC(F)(F)C4)c3)nn2CC(O)CN2CCC(N3CCCC3=O)CC2)C1` (stereo not drawn) [Example 241, 1-[1-(3-{3-[3-{[2-(3,3-Difluoropyrrolidin-1-yl)ethyl]sulfanyl}-4-(trifluoromethyl)phenyl]-5-(hydroxyacetyl)-4,5,6,7-tetrahydro-1H-pyrazolo[4,3-c]pyridin-1-yl}-2-hydroxypropyl)piperidin-4-yl]pyrrolidin-2-one] it was 30 nM; in that of `CC(C)(O)C1CCN(C[C@H](O)Cn2nc(-c3ccc(C(F)(F)F)c(SCCN4CCC5CCCCC5C4)c3)c3c2CCN(S(C)(=O)=O)C3)CC1` (stereo partly drawn) [Example 803, (2S)-1-[4-(1-Hydroxy-1-methylethyl)piperidin-1-yl]-3-{5-(methylsulfonyl)-3-[3-{[2-(octahydroisoquinolin-2(1H)-yl)ethyl]sulfanyl}-4-(trifluoromethyl)phenyl]-4,5,6,7-tetrahydro-1H-pyrazolo[4,3-c]pyridin-1-yl}propan-2-ol], 60 nM; in that of `CCOC(=O)NC1CCN(CCCn2nc(-c3ccc(C(F)(F)F)c(SCCN4CCCCC4)c3)c3c2CCN(S(C)(=O)=O)C3)CC1` [Example 150, Ethyl(1-{3-[5-(methylsulfonyl)-3-{3-[(2-piperidin-1-ylethyl)sulfanyl]-4-(trifluoromethyl)phenyl}-4,5,6,7-tetrahydro-1H-pyrazolo[4,3-c]pyridin-1-yl]propyl}piperidin-4-yl)carbamate], 90 nM. In the case of `CS(=O)(=O)N1CCc2c(c(-c3ccc(C(F)(F)F)c(SCCN4CCC(F)CC4)c3)nn2CC(O)CN2CCC[C@@H](O)C2)C1` (stereo partly drawn) [Example 483, (3R)-1-(3-{3-[3-{[2-(4-Fluoropiperidin-1-yl)ethyl]sulfanyl}-4-(trifluoromethyl)phenyl]-5-(methylsulfonyl)-4,5,6,7-tetrahydro-1H-pyrazolo[4,3-c]pyridin-1-yl}-2-hydroxypropyl)piperidin-3-ol], the IC50 amounted to 410 nM. Next, `CC1CCN(C[C@H](O)Cn2nc(-c3ccc(C(F)(F)F)c(SCCN4CCC(F)CC4)c3)c3c2CCNC3)CC1` [Example 304, (2S)-1-{3-[3-{[2-(4-Fluoropiperidin-1-yl)ethyl]sulfanyl}-4-(trifluoromethyl)phenyl]-4,5,6,7-tetrahydro-1H-pyrazolo[4,3-c]pyridin-1-yl}-3-(4-methylpiperidin-1-yl)propan-2-ol]: 2860 nM; `CS(=O)(=O)N1CCc2c(c(-c3ccc(C(F)(F)F)c(SCCN4CCC(F)CC4)c3)nn2CC(O)CN2CCC(NC(=O)CO)CC2)C1` (stereo not drawn) [Example 195, N-[1-(3-{3-[3-{[2-(4-Fluoropiperidin-1-yl)ethyl]sulfanyl}-4-(trifluoromethyl)phenyl]-5-(methylsulfonyl)-4,5,6,7-tetrahydro-1H-pyrazolo[4,3-c]pyridin-1-yl}-2-hydroxypropyl)piperidin-4-yl]-2-hydroxyacetamide]: 60 nM; `CS(=O)(=O)N1CCc2c(c(-c3ccc(C(F)(F)F)c(SCCN4CCCCC4)c3)nn2CC(O)CN2CCC(NC(N)=O)CC2)C1` (stereo not drawn) [Example 600, 1-(1-{2-Hydroxy-3-[5-(methylsulfonyl)-3-{3-[(2-piperidin-1-ylethyl)sulfanyl]-4-(trifluoromethyl)phenyl}-4,5,6,7-tetrahydro-1H-pyrazolo[4,3-c]pyridin-1-yl]propyl}piperidin-4-yl)urea]: 30 nM.

The values are drawn from patent US20090099157A1, “TETRAHYDRO-PYRAZOLO-PYRIDINE THIOETHER MODULATORS OF CATHEPSIN S” (priority 2007, published 2009).
